Test results published in patent US20190119284A1, “ErbB Inhibitors and Uses Thereof” (The Regents of the University of California, priority 2016, published 2019).

Protein sequences, listed by entry. Tags and fused reporters are not part of them.
UniProt P04626, whole entry Y1005F/Y1023F/Y1112F/Y1127F/Y1139F/Y1196F/Y1221F/Y1222F/Y1248F: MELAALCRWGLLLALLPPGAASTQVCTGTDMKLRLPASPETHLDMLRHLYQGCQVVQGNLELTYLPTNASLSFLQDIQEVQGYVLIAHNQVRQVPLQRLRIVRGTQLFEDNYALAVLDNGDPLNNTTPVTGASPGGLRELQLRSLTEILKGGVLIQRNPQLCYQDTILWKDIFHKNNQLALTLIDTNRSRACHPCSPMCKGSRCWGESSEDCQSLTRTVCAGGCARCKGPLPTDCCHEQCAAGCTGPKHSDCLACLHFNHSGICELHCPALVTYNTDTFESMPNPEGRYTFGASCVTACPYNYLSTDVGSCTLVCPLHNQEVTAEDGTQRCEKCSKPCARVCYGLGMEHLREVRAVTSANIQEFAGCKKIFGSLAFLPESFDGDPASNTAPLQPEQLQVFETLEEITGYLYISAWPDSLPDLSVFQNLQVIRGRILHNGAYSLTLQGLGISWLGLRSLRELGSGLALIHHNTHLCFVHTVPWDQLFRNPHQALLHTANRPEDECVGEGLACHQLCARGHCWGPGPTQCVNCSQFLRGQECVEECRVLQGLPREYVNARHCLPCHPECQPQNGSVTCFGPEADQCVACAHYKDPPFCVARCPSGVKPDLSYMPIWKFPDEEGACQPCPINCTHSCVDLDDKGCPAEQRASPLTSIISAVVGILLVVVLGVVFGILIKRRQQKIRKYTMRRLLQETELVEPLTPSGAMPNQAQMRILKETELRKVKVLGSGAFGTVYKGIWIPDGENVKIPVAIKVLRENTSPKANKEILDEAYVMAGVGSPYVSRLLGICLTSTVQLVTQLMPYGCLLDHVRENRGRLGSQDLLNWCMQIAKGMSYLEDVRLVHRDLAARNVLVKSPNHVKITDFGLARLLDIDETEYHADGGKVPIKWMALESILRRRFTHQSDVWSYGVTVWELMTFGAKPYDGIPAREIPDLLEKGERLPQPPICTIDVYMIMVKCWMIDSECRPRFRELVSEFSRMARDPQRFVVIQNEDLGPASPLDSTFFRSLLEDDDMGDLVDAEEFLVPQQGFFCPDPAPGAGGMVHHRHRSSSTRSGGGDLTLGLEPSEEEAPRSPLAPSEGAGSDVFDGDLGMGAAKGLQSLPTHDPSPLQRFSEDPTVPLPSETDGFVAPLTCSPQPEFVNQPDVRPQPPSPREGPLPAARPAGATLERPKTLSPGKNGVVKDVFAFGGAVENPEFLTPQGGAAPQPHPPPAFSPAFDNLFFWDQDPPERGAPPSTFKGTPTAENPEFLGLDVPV
UniProt P30530, whole entry: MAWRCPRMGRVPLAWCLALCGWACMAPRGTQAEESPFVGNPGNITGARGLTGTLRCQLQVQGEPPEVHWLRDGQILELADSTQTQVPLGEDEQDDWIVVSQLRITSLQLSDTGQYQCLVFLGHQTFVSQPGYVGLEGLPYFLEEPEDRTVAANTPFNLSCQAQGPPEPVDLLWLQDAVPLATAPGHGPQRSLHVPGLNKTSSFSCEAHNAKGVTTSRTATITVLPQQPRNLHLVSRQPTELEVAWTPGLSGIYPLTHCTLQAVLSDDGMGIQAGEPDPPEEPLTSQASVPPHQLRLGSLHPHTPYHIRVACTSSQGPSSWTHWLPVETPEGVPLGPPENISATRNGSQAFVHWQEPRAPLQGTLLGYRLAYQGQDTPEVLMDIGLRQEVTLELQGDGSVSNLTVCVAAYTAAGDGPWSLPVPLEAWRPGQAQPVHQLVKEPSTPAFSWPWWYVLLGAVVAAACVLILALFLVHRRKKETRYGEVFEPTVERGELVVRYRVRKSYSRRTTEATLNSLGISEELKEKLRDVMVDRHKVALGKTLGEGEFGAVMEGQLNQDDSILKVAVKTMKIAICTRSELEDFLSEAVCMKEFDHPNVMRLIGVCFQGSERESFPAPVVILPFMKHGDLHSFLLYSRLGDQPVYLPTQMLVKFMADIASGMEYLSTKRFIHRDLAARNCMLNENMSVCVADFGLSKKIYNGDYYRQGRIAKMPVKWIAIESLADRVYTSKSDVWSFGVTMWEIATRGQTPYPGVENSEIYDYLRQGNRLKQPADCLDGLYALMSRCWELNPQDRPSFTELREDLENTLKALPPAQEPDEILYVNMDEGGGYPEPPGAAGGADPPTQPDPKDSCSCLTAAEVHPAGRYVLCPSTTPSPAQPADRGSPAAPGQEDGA

Assays:
[1] = biological target: 2YF/3wt + NRG Ba/F3 cells (HER2YF/HER3wt) (Homo sapiens, UniProt P04626, Y1005F/Y1023F/Y1112F/Y1127F/Y1139F/Y1196F/Y1221F/Y1222F/Y1248F, cells depend on it); test: Ba/F3 proliferation assay, 2YF/3wt + NRG; settings: read-out: Ba/F3 line IC50, HER2YF/HER3 + NRG; Tables 7 and 8
Axl+ Ba/F3 cells = Axl+ Ba/F3 cells (Homo sapiens, UniProt P30530); test: Ba/F3 proliferation assay, Axl+; settings: read-out: Ba/F3 line IC50, Axl+; Tables 7 and 8
[2] = tested on: parental Ba/F3 cells + IL-3; test: Ba/F3 proliferation assay, Parental + IL-3; settings: read-out: Ba/F3 line IC50, Parental + IL-3; Tables 7 and 8
HER2+/2VE Ba/F3 line = test: Ba/F3 proliferation assay, HER2+/2VE; settings: read-out: Ba/F3 line IC50, HER2+/2VE; Tables 7 and 8

COc1ccc(C2CCCCC2)cc1Nc1ncnc2[nH]nc(-c3ccsc3)c12
> 10 µM: GI50 [1] | GI50 (Axl+ Ba/F3 cells) | IC50 [2] | IC50 (HER2+/2VE Ba/F3 line)
